This note sets out measurements from patent US8003342.

The target in this data set is recombinant wild type human p21^H-ras protein (UniProt P01112).

On to rat brain farnesyl:protein transferase, for which the “half-maximal concentration for p21^H-ras (substrate saturation of farnesyl transfer)” value is given as “The half-maximal concentration for p21^H-ras was approximately 5 µM”.
